Values quoted from earlier work, collected in US9745567B2, “Compositions and methods for treating multiple sclerosis” (REVALESIO CORPORATION, priority 2008, dated 2017).

System: multiple sclerosis
Conditions: human, in vivo

B1: interferon-β: naturally occurring protein produced by fibroblasts; drug for MS (protein, UniProt P01574 22-187, looked up)
Interferon beta: MSYNLLGFLQRSSNFQCQKLLWQLNGRLEYCLKDRMNFDIPEEIKQLQQFQKEDAALTIYEMLQNIFAIFRQDSSSTGWNETIVENLLANVYHQINHLKTVLEEKLEKEDFTRGKLMSSLHLKRYYGRILHYLKAKEYSHCAWTIVRVEILRNFYFINRLTGYLRN
For B1, the “effectiveness in reducing the rate of MS episodes” value is listed as 18-38%.
